Measurements taken from article PMC2641028.

Molecular target: CP-MVP-Z recombinant vaults
Experiment: ELISA

An EC50 of 0.035 nM was found for human IgG1k (Sigma) (antibody) in this work.
